The text below walks through data of patent US20220411487A1 (Regeneron, published 2022).

Assay in all cases: flow cytometry, HEK293 cells expressing target
Test [1] concerns the target T1, full length human TMPRSS6 on HEK293 cells (HEK293/hTMPRSS6) (human, UniProt Q8IU80 10-811).
T1 construct: whole, on cells
T1 sequence (looked up): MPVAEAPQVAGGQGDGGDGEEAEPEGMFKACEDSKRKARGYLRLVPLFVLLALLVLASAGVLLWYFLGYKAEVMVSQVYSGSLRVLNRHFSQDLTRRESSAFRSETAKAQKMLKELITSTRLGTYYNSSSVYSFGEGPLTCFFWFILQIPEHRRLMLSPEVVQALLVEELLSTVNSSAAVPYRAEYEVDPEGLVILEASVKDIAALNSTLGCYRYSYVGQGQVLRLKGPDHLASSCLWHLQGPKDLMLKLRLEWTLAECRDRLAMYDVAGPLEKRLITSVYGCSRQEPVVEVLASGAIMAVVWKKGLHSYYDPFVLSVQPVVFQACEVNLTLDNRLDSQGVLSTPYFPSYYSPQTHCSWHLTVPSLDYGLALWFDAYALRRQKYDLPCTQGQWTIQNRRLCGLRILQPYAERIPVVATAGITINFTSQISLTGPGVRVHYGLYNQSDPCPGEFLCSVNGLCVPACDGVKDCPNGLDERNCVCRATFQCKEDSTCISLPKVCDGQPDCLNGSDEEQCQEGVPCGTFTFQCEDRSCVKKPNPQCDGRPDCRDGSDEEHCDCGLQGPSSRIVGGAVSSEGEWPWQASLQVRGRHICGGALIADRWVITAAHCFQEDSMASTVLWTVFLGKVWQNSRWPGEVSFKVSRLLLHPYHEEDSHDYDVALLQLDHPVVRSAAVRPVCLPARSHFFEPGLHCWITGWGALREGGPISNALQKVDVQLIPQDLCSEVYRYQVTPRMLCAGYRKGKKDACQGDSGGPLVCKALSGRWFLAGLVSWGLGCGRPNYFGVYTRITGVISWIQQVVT
The procedure: (§1) To assess the binding of anti-TMPRSS6 antibodies of the present disclosure to the receptor expressed on the cell surface, antibodies (including an IgG subclass control) were serially diluted in assay buffer (PBS without Ca⁺⁺ and Mg⁺⁺ containing 2% FBS) from 375 nM to 22.9 pM (plus a sample containing assay buffer alone without test molecule) and incubated with 0.5×10⁶ cells/well at 4° C. for 30 minutes in assay buffer. […] Cells were fixed using BD CytoFix™ (Becton Dickinson, #554655) and analyzed on either the IQue® or IQue®Plus Flow Cytometers (Intellicyt®). Unstained and secondary antibody alone controls were also tested for all cell lines. The results were analyzed using ForeCyt® (IntelliCyt®) software to determine the geometric means of fluorescence for viable cells and binding ratio was calculated by normalizing the geometric mean value of the test condition by the geometric mean value of the corresponding unstained cells.

The target of test [2] is T2, full length cynomolgous monkey TMPRSS6 on HEK293 cells (HEK293/mfTMPRSS6) (cynomolgous monkey/Macaca fascicularis, UniProt Q8IU80 10-811 (human entry)).
T2 chain: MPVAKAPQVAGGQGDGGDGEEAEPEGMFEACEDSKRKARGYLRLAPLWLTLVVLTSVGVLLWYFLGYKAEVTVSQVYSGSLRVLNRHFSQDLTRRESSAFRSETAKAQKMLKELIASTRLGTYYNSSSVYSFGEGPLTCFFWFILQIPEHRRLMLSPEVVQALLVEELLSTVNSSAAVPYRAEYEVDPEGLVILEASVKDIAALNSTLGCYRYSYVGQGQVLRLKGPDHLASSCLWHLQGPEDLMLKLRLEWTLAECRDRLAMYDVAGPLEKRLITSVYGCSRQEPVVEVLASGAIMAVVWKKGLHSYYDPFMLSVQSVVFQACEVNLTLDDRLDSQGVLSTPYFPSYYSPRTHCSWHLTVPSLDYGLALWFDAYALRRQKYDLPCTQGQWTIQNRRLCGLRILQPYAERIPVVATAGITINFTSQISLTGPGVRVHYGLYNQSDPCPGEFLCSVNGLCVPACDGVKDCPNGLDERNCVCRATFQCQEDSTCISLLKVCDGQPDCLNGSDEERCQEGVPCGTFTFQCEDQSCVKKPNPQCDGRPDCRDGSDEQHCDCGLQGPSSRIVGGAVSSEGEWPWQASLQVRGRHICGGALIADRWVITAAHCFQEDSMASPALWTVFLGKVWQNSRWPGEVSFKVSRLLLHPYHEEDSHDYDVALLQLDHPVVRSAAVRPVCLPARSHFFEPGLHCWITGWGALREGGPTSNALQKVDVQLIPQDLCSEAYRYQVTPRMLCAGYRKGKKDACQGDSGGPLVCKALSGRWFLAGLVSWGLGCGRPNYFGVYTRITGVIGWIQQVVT
The procedure: as §1

Test [3] has as its target T3, full length mouse TMPRSS6 on HEK293 cells (HEK293/mTMPRSS6) (mouse, UniProt Q9DBI0 1-811).
T3 construct: line sorted for high expression
T3 sequence: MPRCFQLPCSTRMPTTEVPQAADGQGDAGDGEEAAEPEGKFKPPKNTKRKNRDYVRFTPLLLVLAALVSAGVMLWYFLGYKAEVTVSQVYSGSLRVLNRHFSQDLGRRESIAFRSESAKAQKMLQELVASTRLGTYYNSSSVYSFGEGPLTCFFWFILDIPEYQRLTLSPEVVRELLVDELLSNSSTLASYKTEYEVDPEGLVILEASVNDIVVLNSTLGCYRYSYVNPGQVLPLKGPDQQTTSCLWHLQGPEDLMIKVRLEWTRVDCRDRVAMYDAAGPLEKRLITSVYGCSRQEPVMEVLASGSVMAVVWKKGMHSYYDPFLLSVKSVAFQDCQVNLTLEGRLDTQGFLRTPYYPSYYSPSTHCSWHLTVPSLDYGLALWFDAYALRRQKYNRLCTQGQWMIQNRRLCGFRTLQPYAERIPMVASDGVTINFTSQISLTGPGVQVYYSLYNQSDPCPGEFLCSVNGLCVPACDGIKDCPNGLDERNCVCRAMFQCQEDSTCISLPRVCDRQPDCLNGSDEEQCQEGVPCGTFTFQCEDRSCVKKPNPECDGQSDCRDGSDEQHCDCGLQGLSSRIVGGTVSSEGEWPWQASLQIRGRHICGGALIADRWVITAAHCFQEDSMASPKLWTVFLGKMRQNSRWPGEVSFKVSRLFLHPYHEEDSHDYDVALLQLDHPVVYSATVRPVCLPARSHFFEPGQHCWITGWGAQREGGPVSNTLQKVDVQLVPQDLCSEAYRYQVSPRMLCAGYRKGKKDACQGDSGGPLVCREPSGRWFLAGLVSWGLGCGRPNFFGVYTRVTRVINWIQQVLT
The method, then: as §1

For orientation: EC50 means the midpoint of the concentration-response curve.

B1: REGN7973 (antibody, human IgG4 S228P, kappa, V domains shown)
VH: EVQLVESGGGLVKPGGSLRLSCAASGFTFSNAWMSWVRQAPGKGLEWVGRIKSKTDSGTTDYAAPVKGRFTISRDDSKNTLYLQMNSLKTEDTAVYYCTTVDNDFWSGYYNWFDPWGQGTLVTVSS
VL: [gap - about 100 residues]
notes: fully human; human IgG4 Fc with hinge S108P; also called mAb37777
Turning to B1, the figures for the concentration giving a half-maximal response (EC50) in test [1], in test [2] and in test [3] were 2.7 nM, 3.3 nM and 35 nM, respectively. Besides, the “Max. Fold Binding” value in test [1] is 58 fold over unstained control; in test [2], 91 fold over unstained control; in test [3], 42 fold over unstained control.
